# AlphaSeq binding of Ab-14 heavy chain variants to a spike HR2 peptide

Reference: Li et al. 2023, doi:10.1038/s41467-023-39022-2. File: FLAb, binding data.

Binding partner: SARS-CoV-2 spike HR2 peptide, sequence PDVDLGDISGINAS.

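The variants were designed computationally from a first round of random CDR variants and then made and measured. Several design methods are mixed in this list. AlphaSeq pools MATa yeast showing the antibodies with MATalpha yeast showing the peptide. Mating (16 h, 30 °C) was followed by selection of diploids and sequencing of their barcodes. Each replicate has its own calibration line, from reference interactions of the BCL2 family. There are six technical replicates.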

The variants keep the light chain, the linker and the frameworks of Ab-14 (scFv order VH, a (GGGGS)3 linker, VL).
VH: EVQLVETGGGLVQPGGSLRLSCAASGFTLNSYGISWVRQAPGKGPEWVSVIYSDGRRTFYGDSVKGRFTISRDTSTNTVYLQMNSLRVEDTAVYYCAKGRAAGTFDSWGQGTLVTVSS
VL: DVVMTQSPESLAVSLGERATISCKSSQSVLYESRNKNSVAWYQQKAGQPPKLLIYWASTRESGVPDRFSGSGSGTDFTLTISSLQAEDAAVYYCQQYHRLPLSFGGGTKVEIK

The parent's heavy chain CDRs are GFTLNSYGIS, VIYSDGRRTFYGDSVK, GRAAGTFDS; each variant's own CDRs replace them letter for letter.
Variants here have at most six changes.
Each Kd is an estimate from the mating assay, the geometric mean of the replicates in which the pair was seen; lower is stronger.
Where no diploid with the target was found in any replicate, the entry reads "nd": below detection, most likely a poor binder, though not proof of it.
The range of this assay differs from that of the first round, and the authors advise against merging the two.

Variant GFSLNSYGIS / VIYSDGRRTFYGDSVK / GNTAGTFDR gave 920 pM (6 of 6 replicates; controls 0 of 18).
Variant GFTLDSYGIS / VIYSDGRRTFYGDSVK / GQLAGTFDS gave 2.3 nM (6 of 6 replicates; controls 0 of 18).
Variant GFSLNSYGIS / VIYSDGRRTFYADSVK / GRYAGTFDS gave 10 nM (6 of 6 replicates; controls 1 of 18).
Variant GFTLNSYGIS / VIYSDGLRTFYGDSVK / GRAAGTFDS gave 40 nM (1 of 6 replicates; controls 0 of 18).
Variant GFDLNSYGIS / VIYSDGMRTFYGDSVK / GNAAGTFDS gave 900 pM (6 of 6 replicates; controls 1 of 18).
Variant GFTLNQYGIS / VIYSDGRRTFYGDSVK / GRQAGTFDS gave nd (0 of 6 replicates; controls 0 of 18).
Variant GFTLNSYGIS / VIYSDGRRTFYQDSVK / GTGAGNNDS gave nd (0 of 6 replicates; controls 0 of 18).
Variant GFNLNSYGIS / VIYSDGRRTFYADSVK / GRMAGTFDT gave 3.7 nM (6 of 6 replicates; controls 1 of 18).
Variant GFTLLSYGIN / VIYSDGRRTFYGDSVK / GRAAGTFDS gave nd (0 of 6 replicates; controls 0 of 18).
Variant GFNLDEYGIS / VIYADGRRTFYADSVK / GEAAGTFDS gave 900 pM (6 of 6 replicates; controls 0 of 18).
Variant GFDLNSYGIS / VIYSDGRRTFYGDSVK / GKVAGTFDT gave 2.6 nM (6 of 6 replicates; controls 0 of 18).
Variant GFELNSYGIS / VIYSDGRRTFYIDSVK / GSAAGTFDA gave 2.2 nM (6 of 6 replicates; controls 0 of 18).
Variant GTTLNSYGIS / VIYSDGRRTFYSDSVK / GRAGGTFDS gave 18 nM (6 of 6 replicates; controls 0 of 18).
Variant TFTLNSYGIS / VIYSDGRRTFYDDSVK / GRAAGTFDS gave 280 nM (5 of 6 replicates; controls 1 of 18).
Variant GFTLNSYGIS / VIYSDGRRTFYGDSVK / GRNCGTFDS gave nd (0 of 6 replicates; controls 0 of 18).
Variant GFVLDSPGIS / VIYSDGRRTFYGDSVK / GRAAGTADS gave nd (0 of 6 replicates; controls 0 of 18).
Variant GFHLNDYGIS / VIYSDGRRTFYCDSVK / GRLAGTFDS gave 41 nM (4 of 6 replicates; controls 0 of 18).
Variant GFELNDYGIS / VIYSDGRRTQYMDSVK / GRAAGTFDS gave nd (0 of 6 replicates; controls 0 of 18).
Variant GFSLNEYGIS / VIYSDGTRTFYSDSVK / GRAAGTFDS gave 820 pM (6 of 6 replicates; controls 0 of 18).
Variant GFSLNEYGIS / VIYSDGRRTFYADSVK / GRAAGTFDM gave 740 pM (6 of 6 replicates; controls 0 of 18).
Variant GFTSNQYGIS / VIYSFGRRTFYSDSVK / GRAAGFFDS gave nd (0 of 6 replicates; controls 0 of 18).
Variant PFEVNNYGIS / VIYSDGRRTFYIDSTK / GRAAGTFDS gave nd (0 of 6 replicates; controls 0 of 18).
Variant GRSLESYGIS / VIYSDGRRTFYGDSVK / GRAAGTFDS gave nd (0 of 6 replicates; controls 0 of 18).
Variant GFNLNSYGIS / VIYSDGRRTFYGDSVK / GNAAGTFDS gave 5.2 nM (12 of 12 replicates; controls 0 of 36).
Variant GFDLNSYGIS / VIYSDGRRTFYSDSVK / GRHAGTFDS gave 40 nM (4 of 6 replicates; controls 0 of 18).
Variant GFDLNSYGIS / VIYSDGRRTFYGDSVK / GSAAGTFDD gave 6.9 nM (6 of 6 replicates; controls 0 of 18).
Variant RFTLDSYGIS / VIYSDGFRTSYGDSVK / GRSAGTFDS gave 65 nM (1 of 6 replicates; controls 0 of 18).
Variant TFTLDSYGIS / VIYSDGRRTFYGDSVK / GRAAGTFDS gave nd (0 of 6 replicates; controls 0 of 18).
Variant GFQLNEYGIS / VIYSDGRRTFYSDSVK / GQAAGTFDT gave 2.2 nM (6 of 6 replicates; controls 0 of 18).
Variant GFTLESYGIS / VIYSDGRRTFYDDSVK / GRDAGTFDT gave 6.0 nM (6 of 6 replicates; controls 1 of 18).

Picked from the list: the 2 lowest averages where every replicate gave a value.

GFSLNEYGIS / VIYSDGRRTFYADSVK / GRAAGTFDM: 740 pM (6 of 6 replicates; controls 0 of 18).
GFSLNEYGIS / VIYSDGTRTFYSDSVK / GRAAGTFDS: 820 pM (6 of 6 replicates; controls 0 of 18).

Three control strains display no target. For all heavy chain designs, 1% of the pairings with them gave a signal, with a median of 120 nM and one signal in twenty below 7.0 nM, so weak values seen in few replicates may be background. Also given: how often the same scFv was detected with the empty control strains.
The parent sequence was in this pool as ten entries: three were never detected, three once, and four in most replicates, with averages from 2.2 nM to 240 nM.
The authors averaged sequences with at least three values out of six and counted those with two or fewer as poor binders.
Where one sequence has several entries in the source, the replicates are pooled.